The structures appear in SMILES notation.

Sequences of proteins named here, by UniProt entry; tags and fusion partners are left off.
UniProt P33535, whole entry: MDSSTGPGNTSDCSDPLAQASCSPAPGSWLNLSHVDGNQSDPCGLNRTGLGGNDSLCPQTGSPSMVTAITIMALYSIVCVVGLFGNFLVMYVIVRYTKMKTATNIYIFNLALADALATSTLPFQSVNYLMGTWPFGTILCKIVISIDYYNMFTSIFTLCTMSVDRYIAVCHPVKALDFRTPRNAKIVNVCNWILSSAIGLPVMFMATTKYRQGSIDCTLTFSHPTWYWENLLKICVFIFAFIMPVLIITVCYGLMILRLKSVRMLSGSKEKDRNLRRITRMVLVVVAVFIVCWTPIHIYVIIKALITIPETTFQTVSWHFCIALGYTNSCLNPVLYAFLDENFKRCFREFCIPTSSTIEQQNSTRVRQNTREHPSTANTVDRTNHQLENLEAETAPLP

In general, EC50 refers to the concentration needed to bring the measured effect to its halfway point. A low value points to greater potency.

This assay has as its target Mu-type opioid receptor (Rattus norvegicus, UniProt P33535). In words: Agonist activity at mu opioid receptor in rat brain membrane by [35S]GTPgammaS binding assay. The format is functional, cell membranes. (In general: Binding of GTPγS marks nucleotide exchange on a G protein.)

In turn, `C[C@@H](NC(=O)[C@@H](N)Cc1ccc(O)cc1)C(=O)NCC(=O)N(C)[C@@H](Cc1ccccc1)C(=O)NCCO` [DAMGO] displayed an EC50 of 214 nM.

(Values after ChEMBL document CHEMBL1687890, “Design, synthesis, pharmacological evaluation, and structure-activity study of novel endomorphin analogues with multiple structural modifications” (J Med Chem, 2011).)
